Values quoted from earlier work as cited in US20230381279A1, “PHARMACEUTICAL COMPOSITION FOR PREVENTING OR TREATING LUPUS-RELATED DISEASES COMPRISING GIP DERIVATIVE OR LONG-ACTING CONJUGATE THEREOF” (HANMI PHARM. CO., LTD., priority 2020, published 2023).

Conditions: J Clin Endocrinol Metab. 2000, 85(10):3575-81; cited from earlier work

glucose-dependent insulinotropic polypeptide [native GIP]
half-life in the human body: about 7 minutes
